Results published in US20250276955A1, “CORONAVIRUS MAIN PROTEASE INHIBITORS AND METHODS USING SAME” (Baylor College of Medicine, priority 2021, published 2025).

Target: SARS-COV-2 M^pro (authentic N- and C-termini) (Severe acute respiratory syndrome coronavirus 2, UniProt P0DTD1)
Format: biochemical
Settings: read-out: Ki, app towards SARS-CoV-2 M^pro, athentic termini

Compound: CNCc1cc(-c2cccc3[nH]ncc23)cc(OC)c1OCC(=O)N(C)C [CDD-1777]
- Ki: 2430 nM
